Literature values in patent US8975232B2, “Macrocyclic kinase inhibitors and uses thereof” (President and Fellows of Harvard College, priority 2010, dated 2015).

System: protein kinases
Details: judged by similar criteria; cited from earlier work

## CNC(=O)c1cc(Oc2ccc(NC(=O)Nc3ccc(Cl)c(C(F)(F)F)c3)cc2)ccn1 [sorafenib]
  selectivity score: 0.10
